Assay results taken from ChEMBL document CHEMBL1129668 (J Med Chem, 1996).
pKi: −log10 of the molar value.

Protein sequences, listed by entry. Tags and fused reporters are not part of them.
UniProt Q9WTR4, whole entry: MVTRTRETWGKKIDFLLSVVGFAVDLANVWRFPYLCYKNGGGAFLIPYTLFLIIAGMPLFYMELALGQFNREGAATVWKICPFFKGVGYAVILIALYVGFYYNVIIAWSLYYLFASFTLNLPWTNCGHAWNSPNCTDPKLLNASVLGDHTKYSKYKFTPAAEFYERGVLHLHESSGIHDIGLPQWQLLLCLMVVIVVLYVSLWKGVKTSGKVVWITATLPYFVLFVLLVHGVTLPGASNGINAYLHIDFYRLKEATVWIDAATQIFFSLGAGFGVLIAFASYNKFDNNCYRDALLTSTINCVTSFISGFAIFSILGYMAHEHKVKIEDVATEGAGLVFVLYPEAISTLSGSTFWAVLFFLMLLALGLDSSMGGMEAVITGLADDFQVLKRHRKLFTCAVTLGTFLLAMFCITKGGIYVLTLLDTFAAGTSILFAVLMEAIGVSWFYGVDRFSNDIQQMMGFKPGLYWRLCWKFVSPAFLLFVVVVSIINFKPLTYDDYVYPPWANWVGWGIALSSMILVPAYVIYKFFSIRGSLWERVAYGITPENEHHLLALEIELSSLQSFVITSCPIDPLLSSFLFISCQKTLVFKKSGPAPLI
UniProt P31652, whole entry: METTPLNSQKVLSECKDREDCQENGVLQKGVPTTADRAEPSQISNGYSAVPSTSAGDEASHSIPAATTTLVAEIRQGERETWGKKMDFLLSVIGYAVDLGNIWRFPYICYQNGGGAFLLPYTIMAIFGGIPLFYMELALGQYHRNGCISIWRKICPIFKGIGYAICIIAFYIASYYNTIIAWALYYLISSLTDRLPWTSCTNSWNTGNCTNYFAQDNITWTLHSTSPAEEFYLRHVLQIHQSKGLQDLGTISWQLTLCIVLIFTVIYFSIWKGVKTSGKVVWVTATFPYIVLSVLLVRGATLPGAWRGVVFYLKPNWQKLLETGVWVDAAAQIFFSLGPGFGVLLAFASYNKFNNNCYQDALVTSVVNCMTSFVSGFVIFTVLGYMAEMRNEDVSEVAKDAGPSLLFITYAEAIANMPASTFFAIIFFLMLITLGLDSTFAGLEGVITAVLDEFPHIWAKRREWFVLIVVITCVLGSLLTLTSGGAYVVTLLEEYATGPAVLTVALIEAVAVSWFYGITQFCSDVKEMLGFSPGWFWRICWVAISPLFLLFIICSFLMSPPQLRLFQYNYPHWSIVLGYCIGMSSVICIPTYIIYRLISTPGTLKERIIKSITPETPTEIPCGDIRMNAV

Columns and labels:
[1] = target: Norepinephrine transporter (Rattus norvegicus, UniProt Q9WTR4); assay: In vitro binding affinity towards Norepinephrine transporter rat cerebral cortical homogenates by [3H]nisoxetine displacement.
Outline: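 Crude membrane fraction of rat frontoparietal cerebral cortex in 50 mM Tris-HCl (pH 7.4) with Na+, K+ (5 mM). […] Typically six concentrations in duplicate; curves computer-fit for IC50, converted to Ki = IC50/(1 + [L]/K_d).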

[2] = target: Sodium-dependent serotonin transporter (Rattus norvegicus, UniProt P31652); assay: In vitro binding affinity towards serotonin transporter in rat cerebral cortical homogenates by [3H]paroxetine displacement.

Row | SMILES | pKi [1] | pKi [2]
1 | Fc1ccc(C(OCCN2CCN(CCCc3ccccc3)CC2)c2ccc(F)cc2)cc1 [VANOXERINE] | < 4.70 | 
2 | COC(=O)[C@H]1[C@@H](OC(=O)c2ccccc2)C[C@@H]2CC[C@H]1N2C [COCAINE] |  | < 5.00
